[ ]: non-standard residue; d: D form. Cha = N[C@@H](CC1CCCCC1)C(=O)O; Mpa = O=C(O)CCS
Tested on: macrophages
Experiment: Sensitivity of macrophages to IFNγ (iNOS expression, flow cytometry)
Format: cell-based
Settings: 100 microM, thrombin 50 iu
Method: In more detail, mechanistic insights: direct effect on monocyte/macrophage phenotype. Sensitivity of macrophages to IFNγ, as assessed by the proportion that express iNOS after stimulation.
The enhanced sensitivity to IFNγ induced by thrombin is inhibited by a PAR-1 antagonist—this is via expression of ABCA1 and membrane lipid rafts. […] BMM purified cells cultured in MCSF for 5 days. Cells then removed for 24 hours and incubated with thrombin (50 units) (if an antagonist or 3-mercaptopropionyl-F-Cha-Cha-RKPNDK was used cells were incubated for 2 hours with the antagonist or 3MP prior to thrombin stimulation to allow time for antagonist to dock with PAR). Cells then had media replaced with thrombin+ PAR reagent and IFN gamma at the dose described. For the PAR2 experiments it was at this point that PAR2 was added. Cells were then incubated for 24 further hours and then analysed by flow cytometry for iNOS. Pure PAR-1 antagonist (αagonist)=FLLRN; Pure PAR-2 agonist=2-Furoyl-LIGRLO-amide; 3-MP=3-mercaptopropionyl-F-Cha-Cha-RKPNDK; All used at 100 microM. Thrombin used at 50 iu

Substance: 3-mercaptopropionyl-Phe-Cha-Cha-Arg-Lys-Pro-Asn-Asp-Lys-NH2 ([Mpa]F[Cha][Cha]RKPNDK-NH2; SMILES N=C(N)NCCC[C@H](NC(=O)[C@H](CC1CCCCC1)NC(=O)[C@H](CC1CCCCC1)NC(=O)[C@H](Cc1ccccc1)NC(=O)CCS)C(=O)N[C@@H](CCCCN)C(=O)N1CCC[C@H]1C(=O)N[C@@H](CC(N)=O)C(=O)N[C@@H](CC(=O)O)C(=O)N[C@@H](CCCCN)C(N)=O) [3-MP, parental untailed compound of PTL032 and PTL0GC-1]
- enhanced sensitivity of macrophages to IFNγ induced by thrombin (iNOS): completely (bottom) or near completely (top) abolishes the effect of thrombin on sensitivity to IFNγ
